High-throughput results (PubChem BioAssay)
IL-2 act: IL-2 activation. 0.065% of 360,000 active. AID 652025. IL-2 activation reporter assay, cell-based qHTS; stimulated with anti-CD3/CD4/CD28 beads; in transgenic mouse T cells. activation, % (series mostly up to about 46 µM); in the data active = activation above about 50%; inconclusive = mostly about 30% to 49%; note: 0% is about no effect
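Readout is EGFP and DsRed signal by fluorescent plate cytometry after 18 h at 37 degrees C. Transgenic mouse T cells (750/well) received compound for 60 min before bead stimulation (anti-CD3, anti-CD4, anti-CD28); memory T cells served as non-tolerant control.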
A549 tox: counter-screen for Nrf2 inhibitors: cytotoxicity in A549 cells; A549 ARE-Fluc cells, CellTiter-Fluor viability, 18-24 h; Potency, µM (top dose mostly 46 µM), without a hit: at the highest dose activity change, negative = cytotoxicity, hits mostly inhibitors; 0.16% of 390,000 active; note: potency is the fitted concentration of half-maximal effect; % is set by controls: 0 for no effect and ±100 for the full control effect
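A549 ARE-Fluc cells in 5% FBS OPTI-MEM, 5000 cells/well, rested 2 h then exposed to compounds in concentration-response for 18-24 h at 37 °C. Viability by CellTiter-Fluor fluorescence (Ex 405/Em 525) after 30 min; luciferase luminescence (BugLite, 15 min, RT) read afterwards.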
Nrf2 ARE act: activates Nrf2 signaling; Potency, µM (highest dose often 46.1 µM), for inactives: at the highest dose activation, most hits filed as activators; 0.31% of 410,000 active; AREc32 ARE-luciferase reporter (MCF7-derived line), luminescence, 24 h; note: potency is the fitted concentration of half-maximal effect; % of control where 0% means no effect; nearly all actives have a fitted effect of over 65% in size
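Steps: seed AREc32_Fluc cells (1000/well, 5% FBS OPTI-MEM); incubate overnight at 37 deg C; add 23 nL compound; incubate 24 hr; add Steady-Glo; hold 30 min RT; read luminescence.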
miR-21 FLuc: raises the signal of a miR-21 reporter | AID 2288 | 340,000 tested, under 10 active | Potency, µM (series often up to 38.3 µM), without a hit: at the highest dose reporter change, positive = more light | HeLa miR-21 FLuc reporter, luciferase, 48 h; active = well fitted rising curve with a large enough effect; inconclusive = small, poorly fitted or top-dose-only effect; inactive = no such curve, though single readings can be large or run the other way;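 further: % of control where 0% means no effect; miR-21 action dims this reporter so a rising signal means less miR-21 action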
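HeLa cells endogenously expressing miR-21, stably carrying CMV-driven firefly luciferase with a downstream miR-21 binding site, 2000 cells/well. Titrations up to approximately 40 uM, 48 hours; luciferase luminescence read.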
ClpP mod: qHTS Assay for Activators of ClpP; ATP-dependent Clp protease proteolytic subunit (Bacillus subtilis (strain 168)), P80244; purified B. subtilis ClpP, FRET peptide cleavage, 20 min; Potency, µM (series often up to 57.5 µM), for the others: at the top dose activity change, negative = active; 1.9% of 340,000 active; AID 651965, 2013; active = well fitted falling curve with a large enough effect; inconclusive = small, poorly fitted or top-dose-only effect; inactive = no such curve, though single readings can be large or run the other way; note: potency is the fitted concentration of half-maximal effect; the source files actives as falling curves though it sought activators and does not explain the sign; nearly all actives have a fitted effect of over 65% in size
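Buffer: 100 mM Tris/HCl pH8, 100 mM KCl, 0.05% low protease BSA, 2.5% glycerol, 0.01% Tween-20. ClpP 10 microg/mL final; 20 min RT; delta FRET normalized to ADEP and DMSO controls.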
Nrf2 block: inhibitors of Nrf2 signaling. A549 ARE-Fluc reporter, luciferase luminescence, 18-24 h. Potency, µM (highest dose often 46 µM), inactives show at the top dose activity change, negative = inhibition, hits mostly inhibitors. 2.1% of 360,000 active. AID 504444; note: potency is the fitted concentration of half-maximal effect; % is set by controls: 0 for no effect and ±100 for the full control effect; nearly all actives have a fitted effect of over 60% in size
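Nrf2 function is reported as luminescence of an ARE-controlled luciferase in A549 cells. Compounds were tested at several concentrations, and a CellTiter-Fluor read on the same wells flagged cytotoxicity.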
Numbers without * were called inactive; ? = inconclusive; . = not tested or not shown; ! = not active in a repeat. In the library only some 3.7% were active in any assay of this set; here they are far more common. Unless noted, calls come from the whole dose curve; as a rule, active = well fitted curve in the direction sought with a large enough effect; inconclusive = small, poorly fitted or top-dose-only effect, or another doubt; inactive = no such curve, though single readings can be large; an effect the other way counts as inactive or inconclusive.

Protein sequences, listed by entry. Tags and fused reporters are not part of them.
ATP-dependent Clp protease proteolytic subunit (Bacillus subtilis (strain 168)), P80244, UniProt P80244, whole entry, looked up: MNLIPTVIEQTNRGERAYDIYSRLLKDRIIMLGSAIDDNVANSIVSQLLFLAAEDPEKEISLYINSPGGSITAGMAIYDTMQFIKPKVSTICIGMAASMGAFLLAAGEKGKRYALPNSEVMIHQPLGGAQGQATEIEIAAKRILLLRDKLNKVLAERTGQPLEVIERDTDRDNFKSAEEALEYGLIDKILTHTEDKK

Compound,IL-2 act,A549 tox,Nrf2 ARE act,miR-21 FLuc,ClpP mod,Nrf2 block
Cc1ccc(S(=O)(=O)c2nnn3c2nc(NCc2ccccc2)c2sccc23)cc1,.,-1%,0%,-6%,20µM*,-5%
Cc1ccc(S(=O)(=O)c2nnn3c2nc(NCc2cccs2)c2sccc23)cc1C,.,-2%,0%,-26%,-14%,?
COc1ccc(Nc2nc3c(S(=O)(=O)c4ccccc4)nnn3c3ccc(Cl)cc23)cc1,.,?,-1%,-16%,-5%,?
Cc1ccc(S(=O)(=O)c2nnn3c2nc(NCc2ccc(F)cc2)c2sccc23)cc1,.,-2%,0%,-6%,-11%,2%
CCc1ccc(S(=O)(=O)c2nnn3c2nc(Nc2ccc(F)cc2)c2cc(Cl)ccc23)cc1,.,-19%,0%,-4%,-1%,9.2µM*
Cc1ccc2c(CC(=O)Nc3ccc(S(=O)(=O)N4CCCCC4)cc3)coc2c1C,.,2%,0%,3%,-5%,?
CCc1ccc(NC(=O)CCS(=O)(=O)c2ccc3c(c2)oc(=O)n3C)cc1,.,6%,0%,3%,1%,?
CCCCC(=O)N1CC(=O)Nc2ccc(F)cc2C1c1ccc(F)cc1 (centres undefined),-3,-7%,0%,2%,20µM*!,-17%
CCCCC(=O)N1CC(=O)Nc2ccc(F)cc2C1c1ccccc1 (centres undefined),0,-3%,0%,-1%,.,?
O=C(CSc1n[nH]c(-c2ccccc2)n1)NCCc1ccccc1,.,-2%,0%,9%,0%,.
CCOC(=O)Cc1c(C)nc2c(-c3ccccc3)c[nH]n2c1=O,-2,-11%,0%,1%,16µM*,-5%
CCOC(=O)Cc1c(C)nc2cc(-c3ccc(C)cc3)[nH]n2c1=O,2,1%,2%,-22%,16µM*,24%
CCOC(=O)c1cnc2c(C)c(-c3ccccc3)[nH]n2c1=O,0,-5%,1%,-10%,69%,1%
CCOC(=O)CCc1c(C)nc2cc(-c3ccc(Cl)cc3)[nH]n2c1=O,-1,-6%,0%,-1%,?,12%
CCOC(=O)Cc1c(C)nc2c(-c3ccccc3)c(-c3ccccc3)[nH]n2c1=O,-1,-18%,1%,-2%,22µM*,.
CCOC(=O)Cc1c(C)nc2c(-c3ccccc3)c(C)[nH]n2c1=O,-1,-5%,0%,2%,28µM*,-10%
Cc1ccc(-n2ncc(C(=O)N3CCN(Cc4ccccc4)CC3)c2C2CCN(C(=O)OC(C)(C)C)CC2)c(C)c1,.,-10%,0%,-3%,0%,?
Oc1ccc(-c2nn[nH]n2)c2cccnc12,.,3%,.,.,.,2%
CCOC(=O)c1cccc(NC(=O)CCS(=O)(=O)c2ccc3c(c2)CC(=O)N3C)c1,.,13%,0%,1%,-1%,?
CCCCNC(=O)[C@@H]1CC=C[C@@H]2CCN(CCCC)C(=O)[C@@H]21,.,.,.,.,2%,.
O=C(Nc1ccccc1Br)N1CCC(CN2CCCC2)CC1,.,-3%,0%,-4%,-2%,.
CCOC(=O)N1CCc2c(sc3c2c(=O)n(Cc2ccccc2)c(=O)n3Cc2ccccc2F)C1,0,1%,0%,0%,-1%,?
CC(=O)N1CCc2c(sc3c2c(=O)n(Cc2ccccc2)c(=O)n3Cc2ccccc2Cl)C1,.,?,-1%,-4%,-1%,18µM*
CC(=O)N1CCc2c(sc3c2c(=O)n(Cc2ccccc2)c(=O)n3Cc2ccccc2F)C1,.,-18%,-1%,-8%,-9%,16µM*
CC(=O)Nc1nonc1-c1nnc(SCC(=O)Nc2cc(C)cc(C)c2)n1-c1ccccc1,.,7%,0%,-16%,10%,1%
Cc1ccc(S(=O)(=O)c2nnn3c2nc(NC2CCCCC2)c2sccc23)cc1C,.,-23%,0%,-8%,?,?
O=S(=O)(c1ccccc1)c1nnn2c1nc(NCc1cccs1)c1sccc12,.,3%,-1%,-13%,-18%,1%
Cc1ccc(C)c(S(=O)(=O)c2nnn3c2nc(NC2CCCC2)c2sccc23)c1,.,?,5%,-6%,32µM*,-113%
Cc1ccc(C)c(S(=O)(=O)c2nnn3c2nc(NCc2cccs2)c2sccc23)c1,.,-6%,-1%,14%,28µM*,?
CCc1ccc(S(=O)(=O)c2nnn3c2nc(NCc2cccs2)c2sccc23)cc1,.,-2%,0%,-23%,28µM*,-3%
O=S(=O)(c1ccc(Br)cc1)c1nnn2c1nc(NCc1cccs1)c1sccc12,.,2%,1%,-16%,28µM*,-28%
Cc1ccccc1NC(=O)Cn1nc(-c2ccc(F)cc2)c2cnc3ccccc3c21,.,1%,-1%,-1%,-8%,18%
Cc1ccc(NS(=O)(=O)c2cccc(C(=O)NC3CC3)c2)c(C)c1,0,1%,-1%,.,-2%,?
COc1cccc(S(=O)(=O)NCc2ccc(C(=O)Nc3ccc(Cl)c(Cl)c3)cc2)c1,-2,?,3%,5%,?,.
Cc1ccc(NS(=O)(=O)c2cccc(C(=O)Nc3cccnc3)c2)c(C)c1,-1,-9%,3%,.,-1%,8.2µM*
Cc1cccc(NC(=O)c2ccc(S(=O)(=O)NCc3cccnc3)cc2)c1,5,-18%,0%,11%,-2%,12µM*

An excerpt from above in order of their number in miR-21 FLuc, largest number first:
Structure,miR-21 FLuc
Cc1ccc(C)c(S(=O)(=O)c2nnn3c2nc(NCc2cccs2)c2sccc23)c1,14%
O=S(=O)(c1ccccc1)c1nnn2c1nc(NCc1cccs1)c1sccc12,-13%
CC(=O)Nc1nonc1-c1nnc(SCC(=O)Nc2cc(C)cc(C)c2)n1-c1ccccc1,-16%

Full records, quoted from the list. Order of values: IL-2 act | A549 tox | Nrf2 ARE act | miR-21 FLuc | ClpP mod | Nrf2 block
CCc1ccc(NC(=O)CCS(=O)(=O)c2ccc3c(c2)oc(=O)n3C)cc1 as listed: . | 6% | 0% | 3% | 1% | ?
Cc1ccc(NS(=O)(=O)c2cccc(C(=O)Nc3cccnc3)c2)c(C)c1 as listed: -1 | -9% | 3% | . | -1% | 8.2µM*
O=S(=O)(c1ccccc1)c1nnn2c1nc(NCc1cccs1)c1sccc12 as listed: . | 3% | -1% | -13% | -18% | 1%

Carrying on.
Compound,IL-2 act,A549 tox,Nrf2 ARE act,miR-21 FLuc,ClpP mod,Nrf2 block
O=C(Nc1ccc(Cl)c(Cl)c1)c1cccc(S(=O)(=O)NCc2cccnc2)c1,-5,-23%,5%,21%,-1%,15µM*
Cc1cc(C)cc(NC(=O)c2ccc(S(=O)(=O)NCc3cccnc3)cc2)c1,2,1%,4%,2%,-1%,-16%
COc1ccc(CCNC(=O)c2cnc3sc(N4CCOCC4)nn3c2=O)cc1OC,.,7%,6%,2%,-19%,?
N#Cc1c(NCc2ccccc2)ccnc1NCc1cccnc1,-5,-14%,0%,21%,-8%,6.5µM*
COC(=O)c1ccccc1NC(=O)N1CCN(C(=O)c2ccco2)CC1,0,2%,2%,-13%,22µM*,-23%
Cc1cc(C)n(-c2nc3cc(Cl)c(Cl)cc3nc2Nc2ccc(F)cc2C)n1,.,0%,0%,-2%,0%,6%
Cc1ccc(NC(=O)c2ccc3c(=O)n4c(nc3c2)CCCCC4)cc1F,0,?,8%,-6%,.,18µM*
CC1CCCCN1C(=S)Nc1ccc2nc3n(c(=O)c2c1)CCCCC3 (centres undefined),1,1%,0%,-20%,28µM*,-21%
